In US9018214B2, “Bicyclic heterocycle compounds and their uses in therapy” (Astex Therapeutics Limited, priority 2011, dated 2015):
Counter-ions that a name gives are not always drawn. Like-named read-outs stand apart in the source and are kept apart here.

Assays:
[1] = system: EVSA-T (human breast carcinoma); assay: Anti-proliferative activity, Alamar Blue assay, EVSA-T; type: cell-based; details: 72 h, read-out: EVSA-T prolif (EC50)
[2] = target: BIR3 domain of human cIAP-1 (residues 267-363) (Homo sapiens (Human), UniProt Q13490); assay: cIAP-1 in vitro competitive displacement binding assay (fluorescence polarization; Probe A AVPIK(5&6FAM)-amide or Probe B AbuRPFK(5&6FAM)-amide)

SMILES	IC50 [2] [nM]	other results
C[C@@H]1CN(CC(=O)N2CC(C)(C)c3ncc(C(C)(F)F)cc32)[C@@H](CN2CCCC2=O)CN1 [Example 188, 1-{[(2R,5R)-1-{2-[6-(1,1-Difluoroethyl)-3,3-dimethyl-1H,2H,3H-pyrrolo[3,2-b]pyridin-1-yl]-2-oxoethyl}-5-methylpiperazin-2-yl]methyl}pyrrolidin-2-one dihydrochloride]	–	EC50 [1]: 630 nM
C[C@@H]1CN(CC(=O)N2CC(C)(C)c3cnc(Cc4ccc(F)cc4F)cc32)[C@@H](CN2CCCC2)CN1 [Example 220, 1-{6-[(2,4-Difluorophenyl)methyl]-3,3-dimethyl-1H,2H,3H-pyrrolo[3,2-c]pyridin-1-yl}-2-[(2R,5R)-5-methyl-2-(pyrrolidin-1-ylmethyl)piperazin-1-yl]ethan-1-one dihydrochloride]	< 1000	–
COC[C@H]1CN[C@H](C)CN1CC(=O)N1CC(C)(C)c2cnc(C(OC)c3ccccc3)cc21 (stereo partly drawn) [Example 132, 1-{6-[Methoxy(phenyl)methyl]-3,3-dimethyl-1H,2H,3H-pyrrolo[3,2-c]pyridin-1-yl}-2-[(2R,5R)-2-(methoxymethyl)-5-methylpiperazin-1-yl]ethan-1-one dihydrochloride]	< 1000	–
CC(C)CC(F)(F)c1cnc2c(c1)N(C(=O)CN1C[C@@H](C)NC[C@@H]1CN1CCOCC1)CC2(C)C [Example 235, 1-[6-(1,1-Difluoro-3-methylbutyl)-3,3-dimethyl-1H,2H,3H-pyrrolo[3,2-b]pyridin-1-yl]-2-[(2R,5R)-5-methyl-2-(morpholin-4-ylmethyl)piperazin-1-yl]ethan-1-one]	< 1000	–
COC[C@H]1CN[C@H](C)CN1CC(=O)N1C[C@](C)(c2ccccc2)c2ccc(C#N)cc21 [Example 140, (3R)-1-{2-[(2R,5R)-2-(Methoxymethyl)-5-methylpiperazin-1-yl]acetyl}-3-methyl-3-phenyl-2,3-dihydro-1H-indole-6-carbonitrile]	–	IC50 ([2]; Probe B AbuRPFK(5&6FAM)-amide, read-out: IC50 or PI cIAP1: IC50): 220 nM
